The entries are a selection whose mix differs from that of the whole data set. Calls of active or inactive are those of the source.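 The calls were made as follows: active = GFP response vs DMSO above a set limit, about the screen mean plus 3 SD (cut at about 150% in these data); inconclusive = under 70 cell events counted for the yeast strain; inactive = the rest.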

The assay can be described thus: TOR pathway LAP4-GFP level changes – S. cerevisiae, multiplex flow cytometry, MLPCN library, primary screen (AID 2023). The note with it: 3 h, at 10 µM, active compounds read high, median GFP as percent of DMSO wells. In general terms: In flow cytometry, cells or beads pass a laser one at a time.
In the case of `CCC(=O)N(c1ccccc1)C1(COC)CCN(CCc2cccs2)CC1`, the GFP response vs DMSO is inactive: 105%.

Regarding `CCC(=O)N(c1ccccc1)C1(COC)CCN(CCn2nnn(CC)c2=O)CC1`, the GFP response vs DMSO was inactive: 104%.
